Experimental data: patent US20260023070A1, “OPTOGENETIC ALPHA-SYNUCLEIN AGGREGATION SYSTEM-BASED COMPOUND SCREENING PLATFORM IN PD-hiPSC-mDA NEURONS” (The Johns Hopkins University, priority 2022, published 2026)

Tested on: opto-α-syn SH-SY5Y cells
Test: OASIS-based high-content imaging assay of light-induced α-syn aggregation (5G4 staining, Aggregates Induction Score)
Type: cell-based, human
Procedure: The opto-α-syn expressing SH-SY5Y cells were seeded in 96-well black flat bottom imaging microplates (Falcon) at 30,000 cells per well in 100 μL of complete media using E1-ClipTip electronic multichannel pipette (Thermo Fisher Scientific) and incubated in 37° C. and 5% CO2 humidified incubator. After 18 h of incubation, 10 μL of 10 μM compounds (column 2 to 10) or 1% DMSO (column 1 and 12) were added (final concentration of DMSO is 0.1%). In order to induce aggregations, the plates were illuminated with blue light (26 μW/mm^2) on customized blue light illumination 96-well plates for 2 h. […] To analyze images, the automated aggregation quantification algorithm and cell counting algorithm in the form of macro are developed using ImageJ software. […] The Aggregates Induction Score (AIS) is calculated using, the following equation: […]
where N^agg is the number of aggregates, ^Ntotal is the number of total cells. […] The hit selection strategy was based on calculated AIS; hits were defined as AIS<0.5. […] Two independent experiments were performed, and total 10 images per well are analyzed to calculate AIS. […]
As illustrated in FIGS. 9A-9B, high-content imaging screening with the optogenetic α-syn aggregation system was performed. The measurement of 5G4^+ aggregates in opto-mock or opto-α-syn SH-SY5Y neuronal cells was assessed. […] Number of DAPI from the original images were counted (FIG. 9B). […]

C[C@@H]1CN(Cc2ccc(F)cc2)CCN1C(=O)COc1ccc(Cl)cc1NC(N)=O [BX 471]
AIS, aggregates induction score: 0.97
